Earlier results in PubChem BioAssay AID977610.

Experiments:
Test in all cases: PubChem AID 977610
OleD = conditions: PDB protein-ligand complexes, literature Ki; protein: OleD; PDB entry 2IYF
Cys-free mutant protein = conditions: PDB protein-ligand complexes, literature Ki; protein: Cys-free mutant protein; PDB entry 2J9H
PRI84V = conditions: PDB protein-ligand complexes, literature Ki; protein: PRI84V; PDB entry 2R3W
PRI50V = conditions: PDB protein-ligand complexes, literature Ki; protein: PRI50V; PDB entry 2R43
fXa = conditions: PDB protein-ligand complexes, literature Ki; protein: fXa; PDB entry 2VH0
BPAO = conditions: PDB protein-ligand complexes, literature Ki; protein: BPAO; PDB entry 2PNC
AgPNP = conditions: PDB protein-ligand complexes, literature Ki; protein: AgPNP; PDB entry 2P4S
[1] = molecular target: purine nucleoside phosphorylase; conditions: PDB protein-ligand complexes, literature Ki; protein: purine nucleoside phosphorylase; PDB entry 1N3I
Vacc-TMPK = conditions: PDB protein-ligand complexes, literature Ki; protein: Vacc-TMPK; PDB entry 2V54
paLpxC = conditions: PDB protein-ligand complexes, literature Ki; protein: paLpxC; PDB entry 2VES
[2] = molecular target: protease retropepsin(PR2); conditions: PDB protein-ligand complexes, literature Ki; protein: protease retropepsin(PR2); PDB entry 2RKF
hiv-1 protease [3] = conditions: PDB protein-ligand complexes, literature Ki; protein: hiv-1 protease; PDB entry 1MUI
HIV-1 protease [4] = conditions: PDB protein-ligand complexes, literature Ki; protein: HIV-1 protease; PDB entry 2Q5K
[5] = molecular target: protease retropepsin(PR1); conditions: PDB protein-ligand complexes, literature Ki; protein: protease retropepsin(PR1); PDB entry 2RKG
2IMA A = conditions: PDB protein-ligand complexes, literature Ki; PDB entry 2IMA
human PNP = conditions: PDB protein-ligand complexes, literature Ki; protein: human PNP; PDB entry 3BGS
[6] = molecular target: beta-n-acetylhexosaminidase; conditions: PDB protein-ligand complexes, literature Ki; protein: beta-n-acetylhexosaminidase; PDB entry 1HP5
GcnA-I = conditions: PDB protein-ligand complexes, literature Ki; protein: GcnA-I; PDB entry 2EPN
wild-type HIV-1 protease = conditions: PDB protein-ligand complexes, literature Ki; protein: wild-type HIV-1 protease; PDB entry 2QHZ
CrtM = conditions: PDB protein-ligand complexes, literature Ki; protein: CrtM; PDB entry 2ZCQ
Trichodiene synthase = conditions: PDB protein-ligand complexes, literature Ki; protein: Trichodiene synthase; PDB entry 2Q9Y
human PPAR?LBD = conditions: PDB protein-ligand complexes, literature Ki; protein: human PPAR?LBD; PDB entry 2P4Y
IDI-1 = conditions: PDB protein-ligand complexes, literature Ki; protein: IDI-1; PDB entry 2VNP
IGF1RK-0P = conditions: PDB protein-ligand complexes, literature Ki; protein: IGF1RK-0P; PDB entry 3D94
factor Xa = conditions: PDB protein-ligand complexes, literature Ki; protein: factor Xa; PDB entry 2VH6
human CK2a (hCK2? = conditions: PDB protein-ligand complexes, literature Ki; protein: human CK2a (hCK2?; PDB entry 2PVM
NanB = conditions: PDB protein-ligand complexes, literature Ki; protein: NanB; PDB entry 2VW2

CC[C@H]1OC(=O)[C@H](C)[C@@H](O[C@H]2C[C@@](C)(OC)[C@@H](O)[C@H](C)O2)[C@H](C)[C@@H](O[C@@H]2O[C@H](C)C[C@H](N(C)C)[C@H]2O)[C@](C)(O)C[C@@H](C)C(=O)[C@H](C)[C@@H](O)[C@]1(C)O
Ki (OleD): 177000 nM

CCCCCCSC[C@H](NC(=O)CC[C@H](N)C(=O)O)C(=O)NCC(=O)O
Ki (Cys-free mutant protein): 410000 nM

Nc1ccc(S(=O)(=O)N(Cc2ccccc2)[C@H]2CNC[C@@H]2N(Cc2ccccc2)S(=O)(=O)c2ccc(N)cc2)cc1
Ki (PRI84V): 128 nM | Ki (PRI50V): 1000 nM

CN(C)Cc1nccn1-c1ccc(N2CC[C@H](NS(=O)(=O)/C=C/c3ccc(Cl)s3)C2=O)c(F)c1
Ki (fXa): 3.1 nM

Clc1cccc(Cl)c1NC1=NCCN1
Ki (BPAO): 466000 nM

O=c1[nH]cnc2c(CN3C[C@H](CO)[C@@H](O)C3)c[nH]c12
Ki (AgPNP): 0.31 nM | Ki [1]: 1.3 nM

Cc1cn([C@H]2C[C@H](O)[C@@H](COP(=O)(O)OP(=O)(O)O)O2)c(=O)[nH]c1=O
Ki (Vacc-TMPK): 25000 nM

O=C(NO)[C@@H](Cc1ccc2ccccc2c1)NS(=O)(=O)c1ccc2ccccc2c1
Ki (paLpxC): 20 nM

Cc1cccc(C)c1OCC(=O)N[C@@H](Cc1ccccc1)[C@@H](O)C[C@H](Cc1ccccc1)NC(=O)[C@H](C(C)C)N1CCCNC1=O
Ki [2]: 0.83 nM | Ki (hiv-1 protease [3]): 0.0013 nM | Ki (HIV-1 protease [4]): 0.005 nM | Ki [5]: 8.2 nM

O=C(/C=C/c1ccc(Cl)cc1Cl)NO
Ki (2IMA A): 300 nM

O=c1[nH]cnc2c(CN3C[C@@H](CO)[C@H](O)C3)c[nH]c12
Ki (human PNP): 0.38 nM

CC1=N[C@@H]2[C@@H](O)[C@H](O)[C@@H](CO)O[C@@H]2S1
Ki [6]: 280 nM | Ki (GcnA-I): 60 nM

C/C(=C\C(=O)N[C@@H](Cc1ccccc1)[C@H](O)CN(Cc1cccs1)S(=O)(=O)c1cc(F)c(F)cc1F)C(F)(F)F
Ki (wild-type HIV-1 protease): 53 nM

O=P(O)(O)[C@@H](CCCc1cccc(Oc2ccccc2)c1)S(=O)(=O)O
Ki (CrtM): 1.5 nM

CC[N+](CC)(CC)Cc1ccccc1
Ki (Trichodiene synthase): 36000 nM

COc1ccc2c(-c3c(C)n(Cc4cc(O[C@H](C)C(=O)O)ccc4Cl)c4cc(OC(F)(F)F)ccc34)noc2c1
Ki (human PPAR?LBD): 1 nM

CN(C)CCOP(=O)(O)OP(=O)(O)O
Ki (IDI-1): 0.12 nM

CN1CCN(C2CC(c3nc(-c4ccc5ccc(-c6ccccc6)nc5c4)c4c(N)nccn34)C2)CC1 (configuration not stated)
Ki (IGF1RK-0P): 157 nM

CS(=O)(=O)c1ccccc1-c1ccc(N2CC[C@H](NS(=O)(=O)/C=C/c3ccc(Cl)s3)C2=O)c(F)c1
Ki (factor Xa): 0.2 nM

N#Cc1cnn2c(NCCc3cnc[nH]3)nc(Nc3ccccc3)nc12
Ki (human CK2a (hCK2?): 360 nM

O=S(=O)(O)CCNC1CCCCC1
Ki (NanB): 500000 nM
